Laboratory results published in publication PMC4128710 (Biochemical pharmacology, 2014).

Columns and labels:
[1] = biological target: T1, A2BAR (Homo sapiens, UniProt P29275); assay: cAMP accumulation in T24 cells endogenously expressing the A2BAR; settings: T-24, read-out: Max effect cAMP (% of effect of NECA)
T1 sequence (P29275 1-332): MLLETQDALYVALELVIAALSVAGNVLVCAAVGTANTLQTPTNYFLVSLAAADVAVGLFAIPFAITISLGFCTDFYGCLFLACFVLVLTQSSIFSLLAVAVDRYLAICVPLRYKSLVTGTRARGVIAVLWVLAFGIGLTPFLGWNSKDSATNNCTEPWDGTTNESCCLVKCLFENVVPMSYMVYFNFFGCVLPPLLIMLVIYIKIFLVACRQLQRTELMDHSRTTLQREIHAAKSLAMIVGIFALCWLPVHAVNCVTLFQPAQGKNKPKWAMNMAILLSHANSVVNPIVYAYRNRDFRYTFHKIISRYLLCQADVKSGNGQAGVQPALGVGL

[2] = biological target: T1, A2BAR; assay: Intracellular calcium mobilization in HEK293 cells overexpressing the A2BAR; settings: HEK293, read-out: Max effect Calcium (% of effect of NECA)
[3] = biological target: T1, A2BAR; assay: Intracellular calcium mobilization in T24 cells; settings: T-24, read-out: Max effect Calcium (% of effect of NECA)

Nc1nc(OCCc2c[nH]c3ccccc23)nc2c1ncn2[C@@H]1O[C@H](CO)[C@@H](O)[C@H]1O [MRS3534, 2-(2-(indol-3-yl)ethyloxy)adenosine]
Emax [1]: 82 ± 5.9%
Emax [2]: -7.7 ± 3.2%
Emax [3]: -0.5 ± 1.7%
